According to PubChem BioAssay AID827 (SRMLSC, 2007):
The list shows a part of the results, in another mix than the full data. The source made the active and inactive calls.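 Rule for the calls: active = viability at or below a set limit, 4 SD under the median of all tested compounds (cut at about 3.7% in these data); inactive = the rest.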

Assay: growth suppression of PTEN-null HCT116, primary screen, cell-based, CellTiter-Glo (AID 827);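 note: PTEN knockout HCT116 line with beta catenin targeted HCT116 as companion control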
Conditions: 60 h, at 10 µM, active compounds read low

Compound | viability
CC1CCN(C(=O)Oc2c(Cl)cc(Cl)c3cccnc23)CC1 | inactive: 58.9%
CN(C)C(=O)OCCc1n(C)cc[n+]1C | inactive: 92.2%
CCc1nc2c(n1)c1c(non1O)c1c2no[n+]1[O-] | active: 1.66%
CC(=O)N1C2C3N(C(C)=O)C1C1N(C(C)=O)C(C(N1C(C)=O)N3C(C)=O)N2C(C)=O | inactive: 92.2%
O=[N+]([O-])c1cccc2n[nH]nc12 | inactive: 106%
Oc1ccccc1CNc1ccccn1 | inactive: 94.2%
O=C(NC(Sc1ccncn1)C(Cl)(Cl)Cl)c1ccccc1 (stereo not drawn) | inactive: 91.4%
Cc1c2non([O-])c-2c(C)[n+](=O)[n+]1[O-] | inactive: 81.7%
CC(C)CC(=O)NC(Sc1ccc(Cl)cc1)C(Cl)(Cl)Cl (stereo not drawn) | inactive: 91.3%
CN1CCCC(OC(=O)C(c2ccccc2)c2ccccc2)C1 (stereo not drawn) | inactive: 100%
CCN(N=Nc1nonc1N)c1nonc1N | inactive: 98.8%
Cc1cc(SC(NC(=O)c2ccc(F)cc2)C(Cl)(Cl)Cl)ncn1 (stereo not drawn) | inactive: 104%
CCOP(=O)(Nc1ccccc1)OCC | inactive: 108%
CCC(=O)N1C2C3N(C(=O)CC)C1C1N(C(=O)CC)C(C(N1C(=O)CC)N3C(=O)CC)N2C(=O)CC | inactive: 111%
COC(=O)c1cc2c(s1)N=C(c1ccccc1)N(C)P2(=O)N1CCOCC1 (stereo not drawn) | inactive: 108%
CC(=O)NC(SC(=S)N(CC(C)C)CC(C)C)C(Cl)(Cl)Cl (stereo not drawn) | inactive: 17.7%
CCOC(=O)NC(Sc1ccccc1)C(Cl)(Cl)Cl (stereo not drawn) | inactive: 94.6%
O=P1(Nc2nc3ccc(Cl)cc3s2)COc2ccccc2O1 (stereo not drawn) | inactive: 98.9%
c1nnnn1CCn1cnnn1 | inactive: 109%
O=P(Nc1nccs1)(c1ccccc1)c1ccccc1 | inactive: 99.6%
CC(C)C(=O)NC(Sc1ccccc1)C(Cl)(Cl)Cl (stereo not drawn) | inactive: 81.6%
O=C(OC1CN2CCC1CC2)c1cccc(Cl)c1 (stereo not drawn) | inactive: 101%
C(Cc1nn[nH]n1)Cc1nn[nH]n1 | inactive: 104%
CC(=O)NC(SC(=S)N(C)C)C(Cl)(Cl)Cl (stereo not drawn) | inactive: 4.85%

Compound | viability
Cc1ccc(OCC(=O)OC2CN3CCC2CC3)cc1 (stereo not drawn) | inactive: 97.2%
O=P1(Nc2ccc(Br)cn2)COc2ccccc2OC1 | inactive: 94.1%
O=P1(Nc2ncccn2)COc2ccccc2OC1 | inactive: 103%
Cc1nn(-c2ccccc2)c2c1P(=O)(N1CCOCC1)N(C)C(c1ccccc1)=N2 (stereo not drawn) | inactive: 91.3%
Clc1n[nH]nc1-c1nn[nH][15n]1 | inactive: 100%
O=P1(Nc2ccccn2)COc2ccccc2OC1 | inactive: 90.4%
COc1cc(C2NCCC3(OCCO3)C2(C)C)cc(OC)c1OC (stereo not drawn) | inactive: 103%
CCOP(=O)(Nc1cccc2ccccc12)OCC | inactive: 86.7%
Cc1ccc(NCCc2c([N+](=O)[O-])cc([N+](=O)[O-])cc2[N+](=O)[O-])cc1 | inactive: 64.8%
Cc1cccc(OCC(=O)OC2CN3CCC2CC3)c1 (stereo not drawn) | inactive: 111%
CCOP1(=S)c2c(C)nn(CCC#N)c2N=C(c2ccc(F)cc2)N1C (stereo not drawn) | inactive: 75.7%
O=[N+]([O-])c1ccc2c(c1)nnn2O | inactive: 104%
CCOP1(=S)c2c(C)nn(CCC#N)c2N=C(c2ccccc2F)N1C (stereo not drawn) | inactive: 86.5%
O=P(Nc1nccs1)(c1ccccc1)c1nc2ccccc2s1 (stereo not drawn) | inactive: 99.7%
CCN(CC)C(=S)SC(NC=O)C(Cl)(Cl)Cl (stereo not drawn) | active: 2.07%
O=[N+]([O-])c1cc([N+](=O)[O-])c(-c2ccn[nH]2)s1 | active: 2.33%
ClCCSc1nnc(-c2cccnc2)o1 | inactive: 96%
Cc1ccc2nc3c(c(C)c2c1)CC(C(Cl)Cl)S3 (stereo not drawn) | inactive: 81.1%
Cc1c2c(nc3ccccc13)SC(C(Cl)Cl)C2 (stereo not drawn) | inactive: 83.7%
O=C(OC1CN2CCC1CC2)C12CC3CC(CC(C3)C1)C2 (stereo not drawn) | inactive: 86.7%
CCC(C)N(CC(C)C)C(=S)SC(NC(C)=O)C(Cl)(Cl)Cl (stereo not drawn) | inactive: 17.1%
O=C(COc1ccccc1)OC1CN2CCC1CC2 (stereo not drawn) | inactive: 90.4%
COP1(=S)c2c(C)nn(CCC#N)c2N=C(c2ccc(F)cc2)N1C (stereo not drawn) | inactive: 101%
Cc1cc(SC(NC(=O)c2ccccc2)C(Cl)(Cl)Cl)nc(C(C)C)n1 (stereo not drawn) | inactive: 100%
